# Values of other authors as cited in patent publication US20050148552A1, “Methods of treating eczema” (priority 2003, published 2005).
# Conditions: in vivo
substance,measurement,value
tetracycline pyrazole [CMT-5],biodistribution,limited biodistribution
